From patent US20200069772A1, “METHODS OF TREATING EARLY RHEUMATOID ARTHRITIS” (BRISTOL-MYERS SQUIBB COMPANY, priority 2014, published 2020)

Key:
Assay type in all cases: in vivo, human
[1] = system: patients with early RA; experiment: AVERT trial: HAQ-DI response (≥0.3 points reduction from baseline)
[2] = system: patients with early RA; experiment: AVERT phase 3b randomized active-controlled trial: signs and symptoms (DAS-defined remission, other remission and ACR measures)
Text: Assessing Very Early Rheumatoid Arthritis Treatment (AVERT) was a phase 3b, randomized, active-controlled trial of 24 months, with a 12-month, double-blind treatment period.
The study population included adults (≥18 years old) with active clinical synovitis of ≥2 joints for ≥8 weeks, with persistent symptoms for ≤2 years; Disease Activity Score (DAS)28 (C-reactive protein [CRP])≥3.2 and anti-citrullinated peptide (CCP)-2 antibody positivity. […] Patients receiving oral corticosteroids were required to be on a stable dose (≤10 mg/day for ≥4 weeks) at initiation and to maintain that dose until Month 12.
SC abatacept was administered at 125 mg/week. […] All patients received concomitant folic acid therapy.
Patients with DAS28 (CRP)≥3.2 were discontinued.
For the purpose of this study, DAS-defined remission was DAS28 (CRP)<2.6.
Exploratory endpoints included: Other remission rates (Simplified Disease Activity Index [SDAI; ≤3.3], Clinical Disease Activity Index [CDAI; ≤2.8] and Boolean remission [28-joint tender joint count ≤1 and 28-joint swollen joint count ≤1 and patient global assessment of disease activity [0-10 cm]≤1 and high-sensitivity CRP≤1 mg/dL]), American College of Rheumatology (ACR) responses and Major Clinical Response (ACR 70 response for 6 months at any time period) in each arm.
Co-primary endpoints were tested in hierarchical fashion. […] All patients who discontinued prior to completing the treatment or withdrawal period were imputed as non-responders for the Month 12 or 18 analyses.
Endpoints of Disease Activity Score (DAS)-defined remission, SDAI remission, CDAI remission, Boolean remission, ACR 20/50/70 response and Major Clinical Response over time were summarized using descriptive statistics (with 95% confidence intervals at each time point). Missing remission data not due to premature discontinuation and not at Day 1 of the treatment period or at Day 169 of the withdrawal period was imputed as a remission if the missing value occurred between two observed remissions. Missing ACR response data not due to premature discontinuation and not at Day 1 of the treatment period or at Day 169 of the withdrawal period was imputed as an ACR response if the missing value occurred between two observed ACR responses.
For each treatment arm, a post hoc analysis was performed of mean baseline characteristics for patients who achieved DAS-defined remission at only Month 12 and at both Months 12 and 18, and of the proportions of patients who achieved DAS-defined remission based on these characteristics. An analysis of the overall treatment effect in mean change from baseline in DAS28 (CRP) (including data up to Month 12 of the treatment period) was performed for each treatment arm. Overall treatment effect and treatment differences between the three arms were obtained using a longitudinal repeated measures model including fixed categorical effects of treatment, months, and prior corticosteroid use as well as the continuous fixed covariate of baseline value. An unstructured covariance matrix was used to represent the correlation of the repeated measures within each subject.

[3] = system: patients with early RA; experiment: AVERT trial: contrast MRI of wrist and hand (synovitis, osteitis, erosion score); details: at 12 months
Description: All patients underwent contrast magnetic resonance imaging (MRI) of the wrist and hand of the major affected upper limb at baseline and at 6, 12, 18 and 24 months.
Adjusted mean MRI change from baseline and standard error was calculated for all arms using a longitudinal repeated measures model. Safety assessments were based on the intent-to-treat population (patients who received≥1 dose of study medication). Analysis of other secondary endpoints is described in the supplementary information.

## Abatacept plus MTX: treatment arm: SC abatacept (CTLA4-Ig) 125 mg/week plus methotrexate titrated to 15-20 mg/week
[1]; Month 12
  HAQ-DI Response (≥0.3), proportion of patients: 78 (65.5) %
[1]; Month 12, listed as abatacept plus MTX
  HAQ-DI Response (≥0.3), proportion of patients: 65.5%
[1]; Month 18
  HAQ-DI Response (≥0.3), proportion of patients: 26 (21.8) %
[2]; FIG. 4A-D and FIG. 5A-E
  other remission endpoints (SDAI, CDAI, Boolean), ACR responses and major clinical response versus MTX over time: numerically greater
[2]; Month 12 of treatment period, patients with baseline DAS28 (CRP), discontinuations imputed as non-responders
  proportion of patients in DAS-defined remission (DAS28 [CRP]<2.6) at Month 12: 60.9%
[2]; after withdrawal of all RA therapy at Month 12, only patients with DAS28 (CRP) available at baseline
  proportion of patients in DAS-defined remission (DAS28 [CRP]<2.6) at both Months 12 and 18: 14.8%
[2]; after withdrawal of all therapy
  patients able to maintain drug-free remission through 6 months: one in four
[2]; of the patients who entered the withdrawal period in DAS-defined remission at Month 12
  patients remaining in DAS-defined remission at Month 18: 24.7%
[2]; post hoc subgroup: baseline DAS28 (CRP) >Median (5.4)
  Proportion of Patients with DAS-defined Remission (DAS28 [CRP] < 2.6) at Both Months 12 and 18: 3/59 (5.1) %
[2]; post hoc subgroup: baseline DAS28 (CRP) Missing
  Proportion of Patients with DAS-defined Remission (DAS28 [CRP] < 2.6) at Both Months 12 and 18: 1/4 (25.0) %
[2]; post hoc subgroup: baseline DAS28 (CRP) ≤Median (5.4)
  Proportion of Patients with DAS-defined Remission (DAS28 [CRP] < 2.6) at Both Months 12 and 18: 14/56 (25.0) %
[2]; post hoc subgroup: baseline Erosion >Median (4.5)
  Proportion of Patients with DAS-defined Remission (DAS28 [CRP] < 2.6) at Both Months 12 and 18: 10/54 (18.5) %
[2]; post hoc subgroup: baseline Erosion >Q1 (1.5)-Q2 (4.5)
  Proportion of Patients with DAS-defined Remission (DAS28 [CRP] < 2.6) at Both Months 12 and 18: 3/27 (11.1) %
[2]; post hoc subgroup: baseline Erosion >Q2 (4.5)-Q3 (8.5)
  Proportion of Patients with DAS-defined Remission (DAS28 [CRP] < 2.6) at Both Months 12 and 18: 8/25 (32.0) %
[2]; post hoc subgroup: baseline Erosion >Q3 (8.5)
  Proportion of Patients with DAS-defined Remission (DAS28 [CRP] < 2.6) at Both Months 12 and 18: 2/29 (6.9) %
[2]; post hoc subgroup: baseline Erosion Missing
  Proportion of Patients with DAS-defined Remission (DAS28 [CRP] < 2.6) at Both Months 12 and 18: 1/15 (6.7) %
[2]; post hoc subgroup: baseline Erosion ≤Median (4.5)
  Proportion of Patients with DAS-defined Remission (DAS28 [CRP] < 2.6) at Both Months 12 and 18: 7/50 (14.0) %
[2]; post hoc subgroup: baseline Erosion ≤Q1 (1.5)
  Proportion of Patients with DAS-defined Remission (DAS28 [CRP] < 2.6) at Both Months 12 and 18: 4/23 (17.4) %
[2]; post hoc subgroup: baseline HAQ-DI >Median (1.375)
  Proportion of Patients with DAS-defined Remission (DAS28 [CRP] < 2.6) at Both Months 12 and 18: 3/55 (5.5) %
[2]; post hoc subgroup: baseline HAQ-DI Missing
  Proportion of Patients with DAS-defined Remission (DAS28 [CRP] < 2.6) at Both Months 12 and 18: 3/6 (50.0) %
[2]; post hoc subgroup: baseline HAQ-DI ≤Median (1.375)
  Proportion of Patients with DAS-defined Remission (DAS28 [CRP] < 2.6) at Both Months 12 and 18: 12/58 (20.7) %
[2]; post hoc subgroup: baseline Osteitis >Median (0.5)
  Proportion of Patients with DAS-defined Remission (DAS28 [CRP] < 2.6) at Both Months 12 and 18: 9/50 (18.0) %
[2]; post hoc subgroup: baseline Osteitis >Q1 (0)-Q2 (0.5)
  Proportion of Patients with DAS-defined Remission (DAS28 [CRP] < 2.6) at Both Months 12 and 18: 2/13 (15.4) %
[2]; post hoc subgroup: baseline Osteitis >Q2 (0.5)-Q3 (5)
  Proportion of Patients with DAS-defined Remission (DAS28 [CRP] < 2.6) at Both Months 12 and 18: 7/25 (28.0) %
[2]; post hoc subgroup: baseline Osteitis >Q3 (5)
  Proportion of Patients with DAS-defined Remission (DAS28 [CRP] < 2.6) at Both Months 12 and 18: 2/25 (8.0) %
[2]; post hoc subgroup: baseline Osteitis Missing
  Proportion of Patients with DAS-defined Remission (DAS28 [CRP] < 2.6) at Both Months 12 and 18: 1/15 (6.7) %
[2]; post hoc subgroup: baseline Osteitis ≤Median (0.5)
  Proportion of Patients with DAS-defined Remission (DAS28 [CRP] < 2.6) at Both Months 12 and 18: 8/54 (14.8) %
[2]; post hoc subgroup: baseline Osteitis ≤Q1 (0)
  Proportion of Patients with DAS-defined Remission (DAS28 [CRP] < 2.6) at Both Months 12 and 18: 6/41 (14.6) %
[2]; post hoc subgroup: baseline Pain (100 mm VAS) >Median (62)
  Proportion of Patients with DAS-defined Remission (DAS28 [CRP] < 2.6) at Both Months 12 and 18: 4/65 (6.2) %
[2]; post hoc subgroup: baseline Pain (100 mm VAS) Missing
  Proportion of Patients with DAS-defined Remission (DAS28 [CRP] < 2.6) at Both Months 12 and 18: 3/6 (50.0) %
[2]; post hoc subgroup: baseline Pain (100 mm VAS) ≤Median (62)
  Proportion of Patients with DAS-defined Remission (DAS28 [CRP] < 2.6) at Both Months 12 and 18: 11/48 (22.9) %
[2]; post hoc subgroup: baseline Synovitis >Median (4.5)
  Proportion of Patients with DAS-defined Remission (DAS28 [CRP] < 2.6) at Both Months 12 and 18: 5/47 (10.6) %
[2]; post hoc subgroup: baseline Synovitis >Q1 (2)-Q2 (4.5)
  Proportion of Patients with DAS-defined Remission (DAS28 [CRP] < 2.6) at Both Months 12 and 18: 7/27 (25.9) %
[2]; post hoc subgroup: baseline Synovitis >Q2 (4.5)-Q3 (8.5)
  Proportion of Patients with DAS-defined Remission (DAS28 [CRP] < 2.6) at Both Months 12 and 18: 3/23 (13.0) %
[2]; post hoc subgroup: baseline Synovitis >Q3 (8.5)
  Proportion of Patients with DAS-defined Remission (DAS28 [CRP] < 2.6) at Both Months 12 and 18: 2/24 (8.3) %
[2]; post hoc subgroup: baseline Synovitis Missing
  Proportion of Patients with DAS-defined Remission (DAS28 [CRP] < 2.6) at Both Months 12 and 18: 1/15 (6.7) %
[2]; post hoc subgroup: baseline Synovitis ≤Median (4.5)
  Proportion of Patients with DAS-defined Remission (DAS28 [CRP] < 2.6) at Both Months 12 and 18: 12/57 (21.1) %
[2]; post hoc subgroup: baseline Synovitis ≤Q1 (2)
  Proportion of Patients with DAS-defined Remission (DAS28 [CRP] < 2.6) at Both Months 12 and 18: 5/30 (16.7) %
[2]; post hoc subgroup: symptom duration >6 Months
  Proportion of Patients with DAS-defined Remission (DAS28 [CRP] < 2.6) at Both Months 12 and 18: 4/49 (8.2) %
[2]; post hoc subgroup: symptom duration >Median (0.37 years)
  Proportion of Patients with DAS-defined Remission (DAS28 [CRP] < 2.6) at Both Months 12 and 18: 6/61 (9.8) %
[2]; post hoc subgroup: symptom duration ≤6 Months
  Proportion of Patients with DAS-defined Remission (DAS28 [CRP] < 2.6) at Both Months 12 and 18: 14/70 (20.0) %
[2]; post hoc subgroup: symptom duration ≤Median (0.37 years)
  Proportion of Patients with DAS-defined Remission (DAS28 [CRP] < 2.6) at Both Months 12 and 18: 12/58 (20.7) %
[2]; post hoc, overall treatment effect over the 12 months of the treatment period
  estimated treatment difference (95% CI) versus MTX in change from baseline in DAS28 (CRP): −0.52 (−0.74, −0.30)
[2]; treatment period, FIG. 4A, from Day 57 (abatacept plus MTX), at most other time points (monotherapy)
  DAS-defined remission rates versus MTX over time: Numerically higher
[3]; FIG. 7A-C
  decreases from baseline in synovitis and osteitis scores by MRI, compared with MTX: numerically greater decreases
[3]; FIG. 7C
  progression of erosion score by MRI, compared with MTX: less progression
